Results as given in patent US7625554B2, “Treatment of alzheimer's disease” (priority 2002, dated 2009).

Tests used:
[1] = system: patients with Alzheimer's Disease; experiment: Alzheimer's Disease Assessment Score, Cognitive Subscale (ADAS-Cog) in the 48 week double-blind trial; format: in vivo, human; conditions: for ADAS-Cog entry: baseline; for ADAS-Cog Δ (exit minus entry): 48 weeks vs baseline
[2] = system: patients with Alzheimer's Disease; experiment: Mini-Mental Status Examination (MMSE) in the 48 week double-blind trial; format: in vivo, human; conditions: for MMSE exit: 48 weeks; for MMSE Entry: baseline; for MMSE Δ (exit minus entry): 48 weeks vs baseline
MxA mRNA = MxA mRNA signal by quantitative PCR in peripheral mononuclear cells of AD patients after ingesting IFN-α; format: in vivo, human
IL-1, IL-6, and TGF-beta = experiment: Pro-inflammatory cytokine secretion by peripheral blood mononuclear cells (ELISA); format: in vivo, human; conditions: oral administration of certain dosages; IL-1, IL-6, TGF-beta
From the text: Peripheral blood mononuclear cells (PMNC) were isolated from heparinized venous blood by means of a Ficoll-Hypaque density gradient (Pharmacia Fine Chemicals, Piscataway, N.J.), washed twice with Hanks balanced salt solution (GIBCO, Grand Island, N.Y.), counted, and resuspended in standard media consisting of 10% fetal calf serum (FCS) (Whittaker Bioproducts, Walkersville, Md.) in RPMI (Whitaker Bioproducts, Walkersville, Md.), with 2% glutamine (GIBCO), and 1% penicillin/streptomycin (GIBCO).
Mononuclear cells (MNC) were unstimulated or stimulated with CD3, Con A, ionomycin/PMA. Supernatants were collected 2-7 days after activation and frozen at −70° C. after centrifugation. Interleukins were measured using solid phase ELISA commercial kit assays for IL-1, IL-6 (Biosource, Camarillo, Calif.) and TGF-β kits (Genzyme, Cambridge, Mass.). To determine the amount of sICAM-1 in serum samples diluted 1/10, commercial ELISA kits were used (Bender MedSystems, Vienna, Austria). To determine the amount of IL-1, IL-6, and a1ACT in serum samples, commercial ELISA kits (above) or routine laboratory tests were performed.

[3] = system: patients having mild to moderate cognitive decline; experiment: Rate of cognitive decline in patients with mild to moderate cognitive decline; format: in vivo, human; conditions: oral administration of certain dosages
[4] = system: pro-inflammatory cytokine production; conditions: ingested, humans with multiple sclerosis; cited from earlier work
[5] = AD patient 4, active arm (30K IU daily oral + donepezil 10 mg)
[6] = AD patient 6, active arm (3K IU daily oral + donepezil 10 mg)

## hrIFN-alpha: human recombinant alpha interferon (Roferon), 3,000 or 30,000 IU in 5 ml saline ingested daily, added to 10 mg donepezil
[1]; 3 active treatment group patients (2 with 30,000 IU, 1 with 3,000 IU) + donepezil, 48 weeks
  cognitive function as assessed by the ADAS-Cog test (in words): maintained or improved their cognitive function
[1]; AD patient 2, active arm (30K IU daily oral + donepezil 10 mg), 48 weeks
  ADAS-Cog exit: 43
[1]; AD patient 2, active arm (30K IU daily oral + donepezil 10 mg), max score 70, higher = worse
  ADAS-Cog entry: 42
[1]; AD patient 4, active arm (30K IU daily oral + donepezil 10 mg), 48 weeks
  ADAS-Cog exit: 38
[1]; [5]
  ADAS-Cog Δ (exit minus entry): −2
  ADAS-Cog entry: 40
[1]; AD patient 6, active arm (3K IU daily oral + donepezil 10 mg), 48 weeks
  ADAS-Cog exit: 12
[1]; [6]
  ADAS-Cog Δ (exit minus entry): −3
  ADAS-Cog entry: 15
[2]; AD patient 2, active arm (30K IU daily oral + donepezil 10 mg)
  MMSE exit: 8
[2]; AD patient 2, active arm (30K IU daily oral + donepezil 10 mg), max score 30, higher = better
  MMSE Entry: 9
[2]; [5]
  MMSE exit: 10
  MMSE Δ (exit minus entry): −3
  MMSE Entry: 13
[2]; [6]
  MMSE exit: 19
  MMSE Δ (exit minus entry): −3
  MMSE Entry: 22
MxA mRNA; 3,000 IU active treatment AD patient, ingested for 48 weeks
  levels of Mx mRNA (in words): unsustained levels of Mx mRNA
MxA mRNA; active #2, 30K IU, Apr. 18, 2002
  Mx (MxA mRNA normalized to β-actin): 2.61 % β-actin molecules
MxA mRNA; active #2, 30K IU, Dec. 13, 2001
  Mx (MxA mRNA normalized to β-actin): 2.37 % β-actin molecules
MxA mRNA; active #2, 30K IU, Jan. 23, 2002
  Mx (MxA mRNA normalized to β-actin): 3.28 % β-actin molecules
MxA mRNA; active #2, 30K IU, Jul. 31, 2001
  Mx (MxA mRNA normalized to β-actin): 3.28 % β-actin molecules
MxA mRNA; active #2, 30K IU, Mar. 06, 2002
  Mx (MxA mRNA normalized to β-actin): 2.59 % β-actin molecules
MxA mRNA; active #2, 30K IU, May 31, 2001
  Mx (MxA mRNA normalized to β-actin): 0.78 % β-actin molecules
MxA mRNA; active #2, 30K IU, Oct. 30, 2001
  Mx (MxA mRNA normalized to β-actin): 6.82 % β-actin molecules
MxA mRNA; active #2, 30K IU, Sept. 19, 2001
  Mx (MxA mRNA normalized to β-actin): 3.88 % β-actin molecules
MxA mRNA; active #4, 30K IU, Apr. 06, 2000
  Mx (MxA mRNA normalized to β-actin): 0.08 % β-actin molecules
MxA mRNA; active #4, 30K IU, Aug. 08, 2000
  Mx (MxA mRNA normalized to β-actin): 0.50 % β-actin molecules
MxA mRNA; active #4, 30K IU, Jul. 19, 2002
  Mx (MxA mRNA normalized to β-actin): 1.09 % β-actin molecules
MxA mRNA; active #4, 30K IU, May 16, 2000
  Mx (MxA mRNA normalized to β-actin): 0.19 % β-actin molecules
MxA mRNA; active #4, 30K IU, May 30, 2002
  Mx (MxA mRNA normalized to β-actin): 0.76 % β-actin molecules
MxA mRNA; active #4, 30K IU, Nov. 14, 2000
  Mx (MxA mRNA normalized to β-actin): 0.28 % β-actin molecules
MxA mRNA; active #4, 30K IU, Sept. 19, 2000
  Mx (MxA mRNA normalized to β-actin): 0.63 % β-actin molecules
MxA mRNA; active #6, 3K IU, Aug. 02, 2002
  Mx (MxA mRNA normalized to β-actin): 0.37 % β-actin molecules
MxA mRNA; active #6, 3K IU, Jan. 04, 2003
  Mx (MxA mRNA normalized to β-actin): 0.39 % β-actin molecules
MxA mRNA; active #6, 3K IU, Jun. 21, 2002
  Mx (MxA mRNA normalized to β-actin): 0.52 % β-actin molecules
MxA mRNA; active #6, 3K IU, Mar. 01, 2003
  Mx (MxA mRNA normalized to β-actin): 0.42 % β-actin molecules
MxA mRNA; active #6, 3K IU, Mar. 29, 2002
  Mx (MxA mRNA normalized to β-actin): 0.41 % β-actin molecules
MxA mRNA; active #6, 3K IU, Nov. 28, 2002
  Mx (MxA mRNA normalized to β-actin): 0.28 % β-actin molecules
MxA mRNA; active #6, 3K IU, Oct. 15, 2002
  Mx (MxA mRNA normalized to β-actin): 0.25 % β-actin molecules
MxA mRNA; active #6, 3K IU, Sept. 05, 2002
  Mx (MxA mRNA normalized to β-actin): 0.19 % β-actin molecules
IL-1, IL-6, and TGF-beta
  pro-inflammatory cytokine secretion by peripheral blood mononuclear cells (in words): decreases pro-inflammatory cytokine secretion
[3]
  rate of cognitive decline (in words): reduces the rate of cognitive decline
[4]
  pro-inflammatory cytokine production (in words): decreased pro-inflammatory cytokine production
